Tests used:
BJAB cells = assay: Cell viability, MTS assay; type: cell-based; details: 5 days
Experimental: (§1) Cells from exponentially growing cultures were plated in untreated flat-bottom 96 well plates at a density of 5×10^3 cells/well, treated with an increasing concentration of the drugs and subsequently assessed for cell viability using the MTS reagent (3-4,5-dimethylthiazol-2yl)-5-(3-carboxy-methoxyphenyl)-2-(4-sulfophenyl)-2H-tetrazolium, inner salt) following the manufacturer's instructions (Promega). Percent cell survival was calculated based on the reading of cells grown in the presence of DMSO control. Experiments were performed in triplicate and have been repeated 2-3 times.

PEL cell lines = assay: Cell viability, MTS assay; type: cell-based
Experimental: as §1

B1: IFN-β: recombinant interferon β (protein, UniProt P01574 22-187, looked up)
Interferon beta: MSYNLLGFLQRSSNFQCQKLLWQLNGRLEYCLKDRMNFDIPEEIKQLQQFQKEDAALTIYEMLQNIFAIFRQDSSSTGWNETIVENLLANVYHQINHLKTVLEEKLEKEDFTRGKLMSSLHLKRYYGRILHYLKAKEYSHCAWTIVRVEILRNFYFINRLTGYLRN
BJAB cells
  effect of recombinant IFN on BJAB: very little effect
PEL cell lines; 5 days
  sensitivity of BC-3, BCBL-1 and JSC-1 to recombinant IFN: highly sensitive
PEL cell lines; BC-3, BCBL-1, JSC-1, BC-1 and VG-1, 5 days
  sensitivity of the 5 PEL cell lines to recombinant IFN: sensitive
